Assay results reported in PubChem BioAssay AID588358 (NMMLSC, 2011).
The list shows a part of the results, in another mix than the full data. Activity calls are given as the source filed them.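 The calls were made as follows: active = binding more than 3 SD below its plate's average and above zero; inconclusive = below that plate limit but binding exactly zero; inactive = the rest.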

Sequences of proteins named here, by UniProt entry; tags and fusion partners are left off.
UniProt P32926, whole entry, looked up: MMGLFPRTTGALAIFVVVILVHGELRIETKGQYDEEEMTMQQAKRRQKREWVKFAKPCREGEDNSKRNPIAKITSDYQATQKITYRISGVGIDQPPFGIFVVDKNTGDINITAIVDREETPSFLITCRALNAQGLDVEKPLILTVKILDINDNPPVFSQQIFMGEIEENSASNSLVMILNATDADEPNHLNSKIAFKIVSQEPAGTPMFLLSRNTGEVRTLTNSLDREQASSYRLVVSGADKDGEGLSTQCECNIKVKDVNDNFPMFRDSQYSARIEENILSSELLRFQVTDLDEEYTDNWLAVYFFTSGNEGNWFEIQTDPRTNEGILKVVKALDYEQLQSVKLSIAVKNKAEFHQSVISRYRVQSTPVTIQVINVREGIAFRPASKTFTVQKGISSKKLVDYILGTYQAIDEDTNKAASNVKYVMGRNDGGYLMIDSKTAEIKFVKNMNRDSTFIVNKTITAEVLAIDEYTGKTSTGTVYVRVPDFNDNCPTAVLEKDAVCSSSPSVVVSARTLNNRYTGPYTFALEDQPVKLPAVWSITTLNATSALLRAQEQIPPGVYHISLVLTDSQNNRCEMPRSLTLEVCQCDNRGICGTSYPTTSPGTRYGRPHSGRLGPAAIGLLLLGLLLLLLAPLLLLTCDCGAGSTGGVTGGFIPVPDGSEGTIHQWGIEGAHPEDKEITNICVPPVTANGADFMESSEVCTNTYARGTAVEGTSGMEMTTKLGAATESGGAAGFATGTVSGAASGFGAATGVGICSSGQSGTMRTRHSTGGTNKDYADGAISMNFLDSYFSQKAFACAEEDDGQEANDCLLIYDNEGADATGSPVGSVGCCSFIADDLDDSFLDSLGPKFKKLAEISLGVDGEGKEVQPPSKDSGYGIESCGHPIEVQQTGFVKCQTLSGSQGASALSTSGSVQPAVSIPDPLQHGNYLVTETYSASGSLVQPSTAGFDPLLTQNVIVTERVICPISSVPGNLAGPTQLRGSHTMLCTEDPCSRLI

Target: Desmoglein-3 (Homo sapiens) (UniProt P32926)
Assay: blockers of anti-DSG3 scFv binding – biochemical, bead-based, flow cytometry, scFv-GFP, primary screen (AID 588358);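 also: hits lower antibody fragment binding to DSG3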
Settings: DSG3-coupled beads, at 10 µM, hits give low values

Row | Compound | binding (percent of control)
1 | Cc1cc(N(CCCl)CCCl)ccc1C=O | inactive: 84.7%
2 | CCCN1CCC(Nc2cc(OC)cc(OC)c2)CC1 | inactive: 119%
3 | c1ccc(CN2CCC(Nc3ccccc3)CC2)cc1 | inactive: 111%
4 | CN(C)C1(CNC(=O)c2cccc(C#N)c2)CCCCC1 | inactive: 81.9%
5 | CC(C)(C)OC(=O)N1CCC(N(C(=O)c2ccccc2)c2ccc(Cl)cc2)CC1 | inactive: 103%
6 | N#Cc1ccc(C(=O)NCC2(N3CCCCC3)CCCCC2)cc1 | inactive: 85.1%
7 | N/C(=N\O)c1c(N)no[n+]1[O-] | inactive: 93.4%
8 | CCOC(=O)N1CCC(Nc2ccc(C)cc2)CC1 | inactive: 118%
9 | COc1ccc(C(=O)NCC2(N3CCOCC3)CCCCC2)cc1OC | inactive: 98.3%
10 | CN1CCC(Nc2ccc(Cl)cc2)CC1 | inactive: 109%
11 | CCC(CO)(C(=O)OC1CN2CCC1CC2)c1ccccc1 (configuration not stated) | inactive: 112%
12 | COc1cc(OC)cc(C(=O)NCC2(N3CCOCC3)CCCCC2)c1 | inactive: 97.9%
13 | CCCOc1ccc(C(=O)NCC2(N(C)C)CCCCC2)cc1 | inactive: 87%
14 | O=C(O)C1(Nc2ccccc2)CCN(Cc2ccccc2)CC1 | inactive: 108%
15 | CC(C)(C)OC(=O)N1CCC(Nc2ccccc2)CC1 | inactive: 104%
16 | CN1CCC(Nc2ccc(F)c(Cl)c2)CC1 | inactive: 118%
17 | CCOc1ncccc1C(=O)NCC1(N2CCOCC2)CCCCC1 | inactive: 95.8%
18 | CN(C)c1ccc(C(=O)NCC2(N3CCCCC3)CCCCC2)cc1 | inactive: 121%
19 | Cn1c(=O)[nH]cc(N(CCCl)CCCl)c1=O | inactive: 115%
20 | Cc1ccccc1NC1(C#N)CCN(Cc2ccccc2)CC1 | inactive: 93.1%
21 | Cc1ccc(NC2(C#N)CCN(Cc3ccccc3)CC2)cc1 | inactive: 122%

Row | Compound | binding (percent of control)
22 | Fc1ccccc1NC1CCN(Cc2ccccc2)CC1 | inactive: 105%
23 | Cc1ccc(C(=O)NCC2(N3CCCCC3)CCCCC2)o1 | inactive: 97.1%
24 | COc1cc(OC)cc(C(=O)NCC2(N3CCCCC3)CCCCC2)c1 | inactive: 112%
25 | CC(=O)N(c1ccccc1)C1CCNCC1 | inactive: 93.7%
26 | CCOC(=O)N1CCC(Nc2cccc(C)c2)CC1 | inactive: 125%
27 | COc1cc(C(=O)NCC2(N(C)C)CCCCC2)ccc1OC(F)F | inactive: 116%
28 | CCOC(=O)N1CCC(Nc2ccc(F)cc2)CC1 | inactive: 106%
29 | COc1ccc(NC2CCN(CCc3ccccc3)CC2)c(OC)c1 | inactive: 105%
30 | CCCCOc1ccc(C(=O)NCC2(N3CCOCC3)CCCCC2)cc1 | inactive: 101%
31 | O=P1(N(CCCl)CCCl)SCCCS1 | inactive: 94.8%
32 | O=C(NCC1(N2CCCCC2)CCCCC1)c1ccc(F)cc1 | inactive: 96.1%
33 | CCOc1ccc(C)cc1CN(CCCl)CCCl | inactive: 109%
34 | CCOC(=O)N1CCC(Nc2ccc(OC)cc2)CC1 | inactive: 104%
35 | COc1ccc(Cl)cc1C(=O)NCC1(N2CCOCC2)CCCCC1 | inactive: 103%
36 | O=C(NCC1(N2CCCCC2)CCCCC1)c1ccc(Cl)s1 | inactive: 119%
37 | O=C(OC1CN2CCC1CC2)C1c2ccccc2Oc2ccccc21 (configuration not stated) | inactive: 104%
38 | O=C(NCC1(N2CCOCC2)CCCCC1)c1cc2ccccc2o1 | inactive: 101%
39 | Cc1cc(C)cc(N(C(=O)c2ccccc2)C2CCN(C(=O)OC(C)(C)C)CC2)c1 | inactive: 79.8%
40 | O=C(NCC1(N2CCCCC2)CCCCC1)c1ccc(Cl)nc1 | inactive: 117%
41 | Cc1cccc(NC2(C#N)CCN(Cc3ccccc3)CC2)c1 | inactive: 114%
42 | CSc1ccccc1C(=O)NCC1(N2CCCCC2)CCCCC1 | inactive: 106%

Row | Compound | binding (percent of control)
43 | O=C(NCC1(N2CCCCC2)CCCCC1)c1cccs1 | inactive: 124%
44 | O=C(NCC1(N2CCCCC2)CCCCC1)c1ccc(=O)[nH]c1 | inactive: 107%
45 | CC(C)(C)OC(=O)N1CCC(N(C(=O)c2ccccc2)c2ccc(F)cc2)CC1 | inactive: 103%
46 | COc1ccc(C(=O)NCC2(N3CCCCC3)CCCCC2)c(OC)c1OC | inactive: 97.2%
47 | CCCOc1ccc(C(=O)NCC2(N(C)C)CCCCC2)cc1OC | inactive: 93.7%
48 | Cc1ccc(C(=O)NCC2(N(C)C)CCCCC2)o1 | inactive: 100%
49 | CN1CCC(Nc2cccc(F)c2)CC1 | inactive: 102%
50 | O=C(NCC1(N2CCCCC2)CCCCC1)c1cncc(Br)c1 | inactive: 99.8%
51 | O=C(NCC1(N2CCOCC2)CCCCC1)c1cc(F)c(F)cc1Cl | inactive: 100%
52 | COc1cc(OC)c(C(=O)NCC2(N(C)C)CCCCC2)cc1OC | inactive: 96.8%
53 | CN(C)c1cccc(C(=O)NCC2(N3CCCCC3)CCCCC2)c1 | inactive: 111%
54 | COc1ccc(CN(CCCl)CCCl)cc1Cl | inactive: 105%
55 | CC(C)c1ccc(C(=O)NCC2(N3CCOCC3)CCCCC2)cc1 | inactive: 104%
56 | COc1ccc(NC2CCN(C(=O)OC(C)(C)C)CC2)cc1 | inactive: 101%
57 | CN1CCN(CCOC(=O)C(O)(c2ccccc2)c2ccccc2)CC1 | inactive: 99.9%
58 | O=C(NCC1(N2CCOCC2)CCCCC1)c1cc(=O)[nH]c2ccccc12 | inactive: 106%
59 | O=C(NCC1(N2CCCCC2)CCCCC1)c1cccc([N+](=O)[O-])c1 | inactive: 102%
60 | CSc1ccc(C(=O)NCC2(N3CCOCC3)CCCCC2)cc1 | inactive: 101%
61 | N#CC1(Nc2ccccc2)CCN(CCc2ccccc2)CC1 | inactive: 108%
62 | CCN1CCC(Nc2ccc(Cl)cc2)CC1 | inactive: 110%
